Columns and labels:
DPP-IV [1] = biological target: T1, DPP-IV (Homo sapiens, UniProt P27487); assay: In vitro inhibitory activity against DPP-IV; type: biochemical
DPP-IV [2] = biological target: T1, DPP-IV; assay: Inhibitory kinetics study; type: biochemical
Outline: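 Test compound was tested separately at 0.25 and 0.5 mg/mL, each against Gly-Pro-AMC at various concentrations (0–60 μM). Inhibition pattern was assigned from Lineweaver-Burk plots. Ki was obtained from a double-reciprocal plot of initial […] against substrate. Values are mean ± SD, n = 6.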

Protein sequences, listed by entry. Tags and fused reporters are not part of them.
UniProt P27487, whole entry: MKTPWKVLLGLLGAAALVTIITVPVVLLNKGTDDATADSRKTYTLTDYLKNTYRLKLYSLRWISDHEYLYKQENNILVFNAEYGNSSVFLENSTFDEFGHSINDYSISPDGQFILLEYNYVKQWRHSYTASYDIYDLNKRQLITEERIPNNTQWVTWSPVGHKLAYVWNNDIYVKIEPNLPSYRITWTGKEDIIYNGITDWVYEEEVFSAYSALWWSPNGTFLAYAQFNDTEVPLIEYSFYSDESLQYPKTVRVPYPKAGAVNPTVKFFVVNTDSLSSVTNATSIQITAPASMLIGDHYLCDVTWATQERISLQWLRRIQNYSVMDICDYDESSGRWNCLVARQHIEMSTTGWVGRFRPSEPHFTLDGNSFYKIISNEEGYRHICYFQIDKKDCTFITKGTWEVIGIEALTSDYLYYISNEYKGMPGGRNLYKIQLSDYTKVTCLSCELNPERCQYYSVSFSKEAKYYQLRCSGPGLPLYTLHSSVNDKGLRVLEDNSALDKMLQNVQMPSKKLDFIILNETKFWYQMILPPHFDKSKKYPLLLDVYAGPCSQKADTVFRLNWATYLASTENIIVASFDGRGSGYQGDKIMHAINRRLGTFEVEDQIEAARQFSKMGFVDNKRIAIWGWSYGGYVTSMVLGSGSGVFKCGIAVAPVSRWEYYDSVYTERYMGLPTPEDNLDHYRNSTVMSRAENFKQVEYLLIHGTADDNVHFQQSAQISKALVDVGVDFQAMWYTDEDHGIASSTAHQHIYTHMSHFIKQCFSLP

## CC[C@H](C)[C@H](N)C(=O)N1CCC[C@H]1C(=O)N[C@H](C(=O)O)[C@@H](C)CC [Diprotin A, reference compound]
DPP-IV [1]
  IC50: 7.21 ± 0.021 µM
DPP-IV [2]
  Ki: 7.32 µM

Reference: PMC9099060 (Dose-Response, 2022)
